{"sequences": {"note": "The chains behind the UniProt entries cited, without tags or fusion partners. Where a name states a change or a piece, a line headed by the entry shows the natural chain unless it says otherwise.", "UniProt Q13547": "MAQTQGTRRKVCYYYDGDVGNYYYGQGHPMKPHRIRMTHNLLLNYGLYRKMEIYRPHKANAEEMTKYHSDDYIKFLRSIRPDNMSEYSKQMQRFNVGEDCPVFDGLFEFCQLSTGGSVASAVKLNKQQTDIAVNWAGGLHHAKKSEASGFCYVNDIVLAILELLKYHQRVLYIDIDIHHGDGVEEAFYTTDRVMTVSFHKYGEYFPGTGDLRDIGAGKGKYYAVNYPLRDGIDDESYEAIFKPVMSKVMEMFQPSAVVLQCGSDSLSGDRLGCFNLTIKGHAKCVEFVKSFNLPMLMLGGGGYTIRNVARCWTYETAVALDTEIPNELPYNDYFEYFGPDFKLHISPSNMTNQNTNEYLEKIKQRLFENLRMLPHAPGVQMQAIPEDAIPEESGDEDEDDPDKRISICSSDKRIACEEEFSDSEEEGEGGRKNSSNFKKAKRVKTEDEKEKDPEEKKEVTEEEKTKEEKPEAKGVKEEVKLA", "UniProt O15379": "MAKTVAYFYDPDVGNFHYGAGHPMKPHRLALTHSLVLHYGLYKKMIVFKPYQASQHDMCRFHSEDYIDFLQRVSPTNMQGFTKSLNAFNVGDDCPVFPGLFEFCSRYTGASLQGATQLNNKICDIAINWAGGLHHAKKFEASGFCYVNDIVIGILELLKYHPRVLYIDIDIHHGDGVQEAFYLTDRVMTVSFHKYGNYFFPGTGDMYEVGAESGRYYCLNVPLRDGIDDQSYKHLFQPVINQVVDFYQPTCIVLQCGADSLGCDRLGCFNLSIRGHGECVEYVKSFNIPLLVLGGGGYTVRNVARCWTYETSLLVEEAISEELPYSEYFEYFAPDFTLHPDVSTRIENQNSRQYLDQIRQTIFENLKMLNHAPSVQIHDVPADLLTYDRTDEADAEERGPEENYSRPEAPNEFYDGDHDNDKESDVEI", "UniProt Q9UQL6": "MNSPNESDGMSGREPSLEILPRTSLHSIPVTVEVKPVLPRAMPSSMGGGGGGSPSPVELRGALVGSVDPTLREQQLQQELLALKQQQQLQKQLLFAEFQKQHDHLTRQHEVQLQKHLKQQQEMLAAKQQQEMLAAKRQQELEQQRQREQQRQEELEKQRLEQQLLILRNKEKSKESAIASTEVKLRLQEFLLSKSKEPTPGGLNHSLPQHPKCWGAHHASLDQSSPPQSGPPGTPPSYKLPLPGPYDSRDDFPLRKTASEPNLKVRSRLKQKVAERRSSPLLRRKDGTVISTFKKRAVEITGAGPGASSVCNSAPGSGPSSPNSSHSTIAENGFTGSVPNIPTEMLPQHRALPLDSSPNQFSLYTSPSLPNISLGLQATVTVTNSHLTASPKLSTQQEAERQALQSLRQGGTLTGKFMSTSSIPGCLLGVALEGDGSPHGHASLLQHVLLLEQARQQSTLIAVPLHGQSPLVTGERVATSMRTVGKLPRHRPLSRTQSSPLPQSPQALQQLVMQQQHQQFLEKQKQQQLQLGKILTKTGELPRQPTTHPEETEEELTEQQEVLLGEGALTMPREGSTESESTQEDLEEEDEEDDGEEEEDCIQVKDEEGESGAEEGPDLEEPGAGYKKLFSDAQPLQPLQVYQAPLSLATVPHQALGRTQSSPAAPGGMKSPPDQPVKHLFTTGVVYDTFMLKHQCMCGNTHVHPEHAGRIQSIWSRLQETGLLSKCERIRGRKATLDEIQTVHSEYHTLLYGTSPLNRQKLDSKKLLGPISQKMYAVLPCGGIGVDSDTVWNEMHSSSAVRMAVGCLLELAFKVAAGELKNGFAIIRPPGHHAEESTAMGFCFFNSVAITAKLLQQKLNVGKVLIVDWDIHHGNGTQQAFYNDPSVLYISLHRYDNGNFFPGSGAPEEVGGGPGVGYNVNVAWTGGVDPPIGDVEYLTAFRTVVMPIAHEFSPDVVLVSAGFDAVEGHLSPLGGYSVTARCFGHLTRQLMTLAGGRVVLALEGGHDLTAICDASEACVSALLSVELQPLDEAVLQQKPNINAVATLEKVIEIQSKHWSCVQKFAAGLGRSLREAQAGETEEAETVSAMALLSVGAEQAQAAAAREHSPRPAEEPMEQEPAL", "UniProt Q8WUI4": "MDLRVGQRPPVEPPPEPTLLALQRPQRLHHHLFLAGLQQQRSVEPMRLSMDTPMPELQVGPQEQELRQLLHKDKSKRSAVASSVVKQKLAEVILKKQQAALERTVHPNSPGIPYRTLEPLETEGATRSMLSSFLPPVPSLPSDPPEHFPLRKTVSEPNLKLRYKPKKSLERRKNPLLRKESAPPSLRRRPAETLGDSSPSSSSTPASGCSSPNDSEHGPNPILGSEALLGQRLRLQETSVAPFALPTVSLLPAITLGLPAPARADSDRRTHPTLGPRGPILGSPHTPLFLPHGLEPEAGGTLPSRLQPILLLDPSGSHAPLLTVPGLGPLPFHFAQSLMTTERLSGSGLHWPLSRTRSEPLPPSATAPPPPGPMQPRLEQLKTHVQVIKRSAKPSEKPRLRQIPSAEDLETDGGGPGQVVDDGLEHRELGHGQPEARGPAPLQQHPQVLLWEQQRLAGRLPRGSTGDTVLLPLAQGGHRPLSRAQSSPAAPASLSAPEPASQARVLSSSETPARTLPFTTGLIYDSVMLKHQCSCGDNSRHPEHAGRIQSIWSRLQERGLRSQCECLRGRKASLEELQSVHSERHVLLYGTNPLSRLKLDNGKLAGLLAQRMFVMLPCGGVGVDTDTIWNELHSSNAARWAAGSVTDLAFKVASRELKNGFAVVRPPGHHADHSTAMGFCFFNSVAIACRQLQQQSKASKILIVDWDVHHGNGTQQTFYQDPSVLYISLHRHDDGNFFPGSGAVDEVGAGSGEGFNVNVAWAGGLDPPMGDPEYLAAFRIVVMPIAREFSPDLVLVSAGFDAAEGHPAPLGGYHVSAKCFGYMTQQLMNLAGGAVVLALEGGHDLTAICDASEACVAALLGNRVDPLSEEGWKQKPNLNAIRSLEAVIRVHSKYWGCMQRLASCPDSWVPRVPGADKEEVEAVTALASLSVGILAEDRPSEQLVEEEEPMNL", "UniProt Q9BY41": "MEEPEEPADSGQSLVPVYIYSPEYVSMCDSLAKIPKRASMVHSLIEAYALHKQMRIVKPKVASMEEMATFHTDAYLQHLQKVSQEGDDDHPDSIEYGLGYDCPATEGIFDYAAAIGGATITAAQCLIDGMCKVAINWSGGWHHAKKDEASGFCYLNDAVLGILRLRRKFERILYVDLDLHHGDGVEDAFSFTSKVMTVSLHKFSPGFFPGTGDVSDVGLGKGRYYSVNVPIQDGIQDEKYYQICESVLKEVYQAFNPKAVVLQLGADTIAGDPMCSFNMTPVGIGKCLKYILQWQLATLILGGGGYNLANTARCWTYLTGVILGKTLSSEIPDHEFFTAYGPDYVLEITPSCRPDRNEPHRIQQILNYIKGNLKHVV", "UniProt Q96DB2": "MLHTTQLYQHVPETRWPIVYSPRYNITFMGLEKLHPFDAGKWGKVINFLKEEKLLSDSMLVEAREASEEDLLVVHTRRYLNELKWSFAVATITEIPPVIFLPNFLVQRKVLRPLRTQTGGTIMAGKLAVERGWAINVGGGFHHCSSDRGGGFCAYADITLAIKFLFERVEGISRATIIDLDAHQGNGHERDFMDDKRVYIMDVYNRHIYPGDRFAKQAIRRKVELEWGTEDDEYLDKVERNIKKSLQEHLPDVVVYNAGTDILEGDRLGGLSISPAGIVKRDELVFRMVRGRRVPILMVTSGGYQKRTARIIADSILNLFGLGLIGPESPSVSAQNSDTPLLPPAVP", "UniProt P56524": "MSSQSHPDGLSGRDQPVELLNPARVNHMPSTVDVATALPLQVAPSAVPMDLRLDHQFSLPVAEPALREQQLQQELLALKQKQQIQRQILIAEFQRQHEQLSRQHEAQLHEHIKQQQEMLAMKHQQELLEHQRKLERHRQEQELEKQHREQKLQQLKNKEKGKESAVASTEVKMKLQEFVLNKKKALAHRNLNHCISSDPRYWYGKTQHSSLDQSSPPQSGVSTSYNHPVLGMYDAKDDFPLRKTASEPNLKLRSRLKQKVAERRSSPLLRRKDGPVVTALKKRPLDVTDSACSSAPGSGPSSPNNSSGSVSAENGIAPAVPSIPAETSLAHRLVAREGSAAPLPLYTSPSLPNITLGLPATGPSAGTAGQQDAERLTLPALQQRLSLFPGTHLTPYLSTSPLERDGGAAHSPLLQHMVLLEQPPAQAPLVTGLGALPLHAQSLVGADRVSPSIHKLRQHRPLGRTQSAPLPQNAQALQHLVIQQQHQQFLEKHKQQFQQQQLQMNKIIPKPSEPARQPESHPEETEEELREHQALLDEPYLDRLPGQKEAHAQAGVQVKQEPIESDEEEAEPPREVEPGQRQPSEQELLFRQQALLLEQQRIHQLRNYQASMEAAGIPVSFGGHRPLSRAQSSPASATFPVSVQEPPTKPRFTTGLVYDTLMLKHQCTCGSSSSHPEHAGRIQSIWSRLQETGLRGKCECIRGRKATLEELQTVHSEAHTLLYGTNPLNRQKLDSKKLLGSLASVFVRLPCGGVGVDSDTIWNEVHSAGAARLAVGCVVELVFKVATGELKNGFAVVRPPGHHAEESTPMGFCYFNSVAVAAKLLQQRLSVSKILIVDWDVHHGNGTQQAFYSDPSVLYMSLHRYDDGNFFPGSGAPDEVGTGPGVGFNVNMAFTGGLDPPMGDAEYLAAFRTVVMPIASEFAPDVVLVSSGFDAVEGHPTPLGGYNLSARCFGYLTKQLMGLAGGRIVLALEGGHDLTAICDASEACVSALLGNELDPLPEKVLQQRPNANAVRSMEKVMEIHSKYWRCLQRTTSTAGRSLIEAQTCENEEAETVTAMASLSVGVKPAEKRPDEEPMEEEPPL", "UniProt Q9UKV0": "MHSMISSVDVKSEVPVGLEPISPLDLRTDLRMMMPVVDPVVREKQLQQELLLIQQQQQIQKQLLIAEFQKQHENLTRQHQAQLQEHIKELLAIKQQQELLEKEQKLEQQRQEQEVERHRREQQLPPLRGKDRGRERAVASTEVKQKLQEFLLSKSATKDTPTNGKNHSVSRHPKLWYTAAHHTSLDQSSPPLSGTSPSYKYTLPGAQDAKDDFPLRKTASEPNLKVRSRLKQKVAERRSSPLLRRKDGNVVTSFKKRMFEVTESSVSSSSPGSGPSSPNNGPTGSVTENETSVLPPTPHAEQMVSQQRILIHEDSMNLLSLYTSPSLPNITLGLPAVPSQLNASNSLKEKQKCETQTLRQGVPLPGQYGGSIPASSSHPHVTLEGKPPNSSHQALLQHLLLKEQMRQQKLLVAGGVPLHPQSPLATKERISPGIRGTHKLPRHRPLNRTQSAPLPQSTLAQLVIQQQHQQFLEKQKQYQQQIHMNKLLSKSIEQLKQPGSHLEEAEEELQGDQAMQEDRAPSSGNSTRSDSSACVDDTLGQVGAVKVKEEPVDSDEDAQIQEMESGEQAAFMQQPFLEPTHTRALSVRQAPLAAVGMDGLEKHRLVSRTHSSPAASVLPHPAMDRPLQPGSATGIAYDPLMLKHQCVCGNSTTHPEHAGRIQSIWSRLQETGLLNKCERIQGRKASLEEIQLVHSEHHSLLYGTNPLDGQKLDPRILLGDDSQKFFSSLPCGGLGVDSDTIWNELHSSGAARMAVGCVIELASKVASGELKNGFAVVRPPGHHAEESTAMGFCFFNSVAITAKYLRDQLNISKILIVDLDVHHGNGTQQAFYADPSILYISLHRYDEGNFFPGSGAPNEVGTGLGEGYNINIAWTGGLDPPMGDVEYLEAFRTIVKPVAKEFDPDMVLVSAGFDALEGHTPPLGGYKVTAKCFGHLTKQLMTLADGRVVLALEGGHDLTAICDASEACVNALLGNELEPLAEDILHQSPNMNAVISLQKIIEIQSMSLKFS", "UniProt Q15910, whole entry, looked up": "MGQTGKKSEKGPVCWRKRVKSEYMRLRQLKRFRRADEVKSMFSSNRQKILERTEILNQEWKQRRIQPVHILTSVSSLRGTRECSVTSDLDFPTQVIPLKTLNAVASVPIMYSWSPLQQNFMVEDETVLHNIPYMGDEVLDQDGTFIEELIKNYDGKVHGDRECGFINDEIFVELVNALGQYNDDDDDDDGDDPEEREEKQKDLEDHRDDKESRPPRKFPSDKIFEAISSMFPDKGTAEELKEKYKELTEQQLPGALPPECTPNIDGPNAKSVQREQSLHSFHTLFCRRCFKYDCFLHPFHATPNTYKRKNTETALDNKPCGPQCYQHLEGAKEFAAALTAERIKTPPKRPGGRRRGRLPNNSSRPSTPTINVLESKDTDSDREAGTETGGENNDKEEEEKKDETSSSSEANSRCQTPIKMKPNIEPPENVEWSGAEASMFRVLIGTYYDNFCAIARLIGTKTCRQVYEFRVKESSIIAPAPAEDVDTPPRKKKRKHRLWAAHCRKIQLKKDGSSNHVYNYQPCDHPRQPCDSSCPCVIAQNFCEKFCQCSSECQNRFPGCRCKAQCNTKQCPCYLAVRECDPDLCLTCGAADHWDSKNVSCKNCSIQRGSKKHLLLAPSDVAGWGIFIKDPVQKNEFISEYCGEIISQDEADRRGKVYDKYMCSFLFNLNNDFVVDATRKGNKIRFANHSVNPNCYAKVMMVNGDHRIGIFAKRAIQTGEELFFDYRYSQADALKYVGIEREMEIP"}, "source": "ChEMBL document CHEMBL4613315", "about": "“Design of First-in-Class Dual EZH2/HDAC Inhibitor: Biochemical Activity and Biological Evaluation in Cancer Cells” (ACS Med Chem Lett, 2020)", "type_in_all_cases": "cell-based", "key": {"[1]": {"target": "T1, Histone deacetylase (Homo sapiens) (UniProt Q13547+O15379+Q9UBN7+Q92769+Q9UQL6+Q8WUI4+Q9BY41+Q96DB2+P56524+Q9UKV0+Q969S8)", "assay": "Inhibition of HDAC in human U937 cells assessed as Ac-H3 level at 5 uM incubated for 48 hrs by Western blot analysis", "conditions": "U-937"}, "[2]": {"target": "T1, Histone deacetylase (Homo sapiens)", "assay": "Inhibition of HDAC in human U937 cells assessed as Ac-H3 level at 10 uM incubated for 48 hrs by Western blot analysis", "conditions": "U-937"}, "[3]": {"target": "T1, Histone deacetylase (Homo sapiens)", "assay": "Inhibition of HDAC in human U937 cells assessed as Ac-H3 level at 5 uM incubated for 72 hrs by Western blot analysis", "conditions": "U-937"}, "[4]": {"target": "T1, Histone deacetylase (Homo sapiens)", "assay": "Inhibition of HDAC in human U937 cells assessed as Ac-H3 level at 10 uM incubated for 72 hrs by Western blot analysis", "conditions": "U-937"}, "[5]": {"target": "T1, Histone deacetylase (Homo sapiens)", "assay": "Inhibition of HDAC in human U937 cells assessed as Ac-H3 level at 5 uM incubated for 96 hrs by Western blot analysis", "conditions": "U-937"}, "[6]": {"target": "T1, Histone deacetylase (Homo sapiens)", "assay": "Inhibition of HDAC in human U937 cells assessed as Ac-H3 level at 10 uM incubated for 96 hrs by Western blot analysis", "conditions": "U-937"}, "[7]": {"target": "T2, Protein deacetylase HDAC6 (Homo sapiens) (UniProt Q9UBN7)", "T2 sequence (whole entry)": "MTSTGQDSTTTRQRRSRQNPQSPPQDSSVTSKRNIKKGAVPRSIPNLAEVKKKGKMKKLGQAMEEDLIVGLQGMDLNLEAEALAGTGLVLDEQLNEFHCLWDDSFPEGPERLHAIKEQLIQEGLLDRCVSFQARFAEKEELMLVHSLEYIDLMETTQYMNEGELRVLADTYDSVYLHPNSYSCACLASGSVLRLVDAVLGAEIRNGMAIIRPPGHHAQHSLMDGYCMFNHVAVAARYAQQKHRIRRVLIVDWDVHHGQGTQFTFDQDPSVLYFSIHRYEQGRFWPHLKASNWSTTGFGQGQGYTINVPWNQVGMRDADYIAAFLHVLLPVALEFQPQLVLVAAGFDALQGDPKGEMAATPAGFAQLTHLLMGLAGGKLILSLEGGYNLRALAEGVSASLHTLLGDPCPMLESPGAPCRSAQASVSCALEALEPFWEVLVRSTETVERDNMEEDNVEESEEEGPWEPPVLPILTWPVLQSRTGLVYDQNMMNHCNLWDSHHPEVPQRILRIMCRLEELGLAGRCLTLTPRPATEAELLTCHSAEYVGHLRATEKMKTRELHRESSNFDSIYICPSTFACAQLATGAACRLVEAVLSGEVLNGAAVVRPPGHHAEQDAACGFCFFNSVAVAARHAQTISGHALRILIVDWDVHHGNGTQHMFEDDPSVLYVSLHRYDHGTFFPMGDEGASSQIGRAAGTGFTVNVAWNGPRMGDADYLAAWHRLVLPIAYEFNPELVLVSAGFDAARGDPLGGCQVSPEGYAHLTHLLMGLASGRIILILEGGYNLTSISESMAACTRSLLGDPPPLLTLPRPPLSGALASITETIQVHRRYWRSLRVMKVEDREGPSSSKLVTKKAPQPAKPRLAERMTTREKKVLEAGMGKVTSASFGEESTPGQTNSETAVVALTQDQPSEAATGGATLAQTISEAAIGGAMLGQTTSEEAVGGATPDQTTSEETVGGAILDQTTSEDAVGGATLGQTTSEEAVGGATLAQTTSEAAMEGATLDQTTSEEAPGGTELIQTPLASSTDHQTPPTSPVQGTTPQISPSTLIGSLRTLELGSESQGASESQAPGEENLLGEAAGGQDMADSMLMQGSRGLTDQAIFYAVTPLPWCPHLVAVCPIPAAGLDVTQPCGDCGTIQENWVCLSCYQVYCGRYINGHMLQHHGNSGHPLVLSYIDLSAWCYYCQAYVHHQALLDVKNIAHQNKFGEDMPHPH", "assay": "Inhibition of HDAC6 in human U937 cells assessed as acetylated alpha-tubulin level at 5 uM incubated for 48 hrs by Western blot analysis", "conditions": "U-937"}, "[8]": {"target": "T2, Protein deacetylase HDAC6 (Homo sapiens)", "assay": "Inhibition of HDAC6 in human U937 cells assessed as acetylated alpha-tubulin level at 10 uM incubated for 48 hrs by Western blot analysis", "conditions": "U-937"}, "[9]": {"target": "T2, Protein deacetylase HDAC6 (Homo sapiens)", "assay": "Inhibition of HDAC6 in human U937 cells assessed as acetylated alpha-tubulin level at 5 uM incubated for 72 hrs by Western blot analysis", "conditions": "U-937"}, "[10]": {"target": "T2, Protein deacetylase HDAC6 (Homo sapiens)", "assay": "Inhibition of HDAC6 in human U937 cells assessed as acetylated alpha-tubulin level at 10 uM incubated for 72 hrs by Western blot analysis", "conditions": "U-937"}, "[11]": {"target": "T2, Protein deacetylase HDAC6 (Homo sapiens)", "assay": "Inhibition of HDAC6 in human U937 cells assessed as acetylated alpha-tubulin level at 5 uM incubated for 96 hrs by Western blot analysis", "conditions": "U-937"}, "[12]": {"target": "T2, Protein deacetylase HDAC6 (Homo sapiens)", "assay": "Inhibition of HDAC6 in human U937 cells assessed as acetylated alpha-tubulin level at 10 uM incubated for 96 hrs by Western blot analysis", "conditions": "U-937"}, "[13]": {"target": "T3, Histone-lysine N-methyltransferase EZH2 (Homo sapiens, UniProt Q15910)", "assay": "Inhibition of EZH2 in human U937 cells assessed as H3K27me3 level at 5 uM incubated for 48 hrs by Western blot analysis", "conditions": "U-937"}, "[14]": {"target": "T3, Histone-lysine N-methyltransferase EZH2", "assay": "Inhibition of EZH2 in human U937 cells assessed as H3K27me3 level at 10 uM incubated for 48 hrs by Western blot analysis", "conditions": "U-937"}, "[15]": {"target": "T3, Histone-lysine N-methyltransferase EZH2", "assay": "Inhibition of EZH2 in human U937 cells assessed as H3K27me3 level at 5 uM incubated for 72 hrs by Western blot analysis", "conditions": "U-937"}, "[16]": {"target": "T3, Histone-lysine N-methyltransferase EZH2", "assay": "Inhibition of EZH2 in human U937 cells assessed as H3K27me3 level at 10 uM incubated for 72 hrs by Western blot analysis", "conditions": "U-937"}, "[17]": {"target": "T3, Histone-lysine N-methyltransferase EZH2", "assay": "Inhibition of EZH2 in human U937 cells assessed as H3K27me3 level at 5 uM incubated for 96 hrs by Western blot analysis", "conditions": "U-937"}, "[18]": {"target": "T3, Histone-lysine N-methyltransferase EZH2", "assay": "Inhibition of EZH2 in human U937 cells assessed as H3K27me3 level at 10 uM incubated for 96 hrs by Western blot analysis", "conditions": "U-937"}, "[19]": {"target": "T2, Protein deacetylase HDAC6 (Homo sapiens)", "assay": "Inhibition of HDAC6 in human U937 cells assessed as acetylated alpha-tubulin level at 50 uM incubated for 72 hrs by Western blot analysis", "conditions": "U-937"}, "[20]": {"target": "T2, Protein deacetylase HDAC6 (Homo sapiens)", "assay": "Inhibition of HDAC6 in human U937 cells assessed as acetylated alpha-tubulin level at 50 uM incubated for 96 hrs by Western blot analysis", "conditions": "U-937"}, "[21]": {"target": "T2, Protein deacetylase HDAC6 (Homo sapiens)", "assay": "Inhibition of HDAC6 in human U937 cells assessed as acetylated alpha-tubulin level at 50 uM incubated for 120 hrs by Western blot analysis", "conditions": "U-937"}, "[22]": {"target": "T2, Protein deacetylase HDAC6 (Homo sapiens)", "assay": "Inhibition of HDAC6 in human U937 cells assessed as acetylated alpha-tubulin level at 50 uM incubated for 144 hrs by Western blot analysis", "conditions": "U-937"}, "[23]": {"target": "T3, Histone-lysine N-methyltransferase EZH2", "assay": "Inhibition of EZH2 in human U937 cells assessed as H3K27me3 level at 50 uM incubated for 72 hrs by Western blot analysis", "conditions": "U-937"}, "[24]": {"target": "T3, Histone-lysine N-methyltransferase EZH2", "assay": "Inhibition of EZH2 in human U937 cells assessed as H3K27me3 level at 50 uM incubated for 144 hrs by Western blot analysis", "conditions": "U-937"}, "[25]": {"target": "T2, Protein deacetylase HDAC6 (Homo sapiens)", "assay": "Inhibition of HDAC6 in human RH4 cells assessed as acetylated alpha-tubulin level at 14 uM incubated for 72 hrs by Western blot analysis"}, "[26]": {"target": "T2, Protein deacetylase HDAC6 (Homo sapiens)", "assay": "Inhibition of HDAC6 in human RH4 cells assessed as acetylated alpha-tubulin level at 28 uM incubated for 72 hrs by Western blot analysis"}, "[27]": {"target": "T2, Protein deacetylase HDAC6 (Homo sapiens)", "assay": "Inhibition of HDAC6 in human RH4 cells assessed as acetylated alpha-tubulin level at 14 uM incubated for 96 hrs by Western blot analysis"}, "[28]": {"target": "T2, Protein deacetylase HDAC6 (Homo sapiens)", "assay": "Inhibition of HDAC6 in human RH4 cells assessed as acetylated alpha-tubulin level at 28 uM incubated for 96 hrs by Western blot analysis"}, "[29]": {"target": "T3, Histone-lysine N-methyltransferase EZH2", "assay": "Inhibition of EZH2 in human RH4 cells assessed as H3K27me3 level at 14 uM incubated for 72 hrs by Western blot analysis"}, "[30]": {"target": "T3, Histone-lysine N-methyltransferase EZH2", "assay": "Inhibition of EZH2 in human RH4 cells assessed as H3K27me3 level at 28 uM incubated for 72 hrs by Western blot analysis"}, "[31]": {"target": "T3, Histone-lysine N-methyltransferase EZH2", "assay": "Inhibition of EZH2 in human RH4 cells assessed as H3K27me3 level at 14 uM incubated for 96 hrs by Western blot analysis"}, "[32]": {"target": "T3, Histone-lysine N-methyltransferase EZH2", "assay": "Inhibition of EZH2 in human RH4 cells assessed as H3K27me3 level at 28 uM incubated for 96 hrs by Western blot analysis"}}}
{"smiles": "Cc1cc(C)c(CNC(=O)c2cc(C)n(-c3cccc(NC(=O)CCCCCCC(=O)NO)c3)c2C)c(=O)[nH]1", "values": [{"measurement": "fold change (FC)", "setting": "[1]", "result": 1.4}, {"measurement": "fold change (FC)", "setting": "[2]", "result": 1.4}, {"measurement": "fold change (FC)", "setting": "[3]", "result": 1.1}, {"measurement": "fold change (FC)", "setting": "[4]", "result": 1.2}, {"measurement": "fold change (FC)", "setting": "[5]", "result": 0.9}, {"measurement": "fold change (FC)", "setting": "[6]", "result": 1}, {"measurement": "fold change (FC)", "setting": "[7]", "result": 2.8}, {"measurement": "fold change (FC)", "setting": "[8]", "result": 3.1}, {"measurement": "fold change (FC)", "setting": "[9]", "result": 4.2}, {"measurement": "fold change (FC)", "setting": "[10]", "result": 4.3}, {"measurement": "fold change (FC)", "setting": "[11]", "result": 4.5}, {"measurement": "fold change (FC)", "setting": "[12]", "result": 4.1}, {"measurement": "fold change (FC)", "setting": "[13]", "result": 1}, {"measurement": "fold change (FC)", "setting": "[14]", "result": 1.1}, {"measurement": "fold change (FC)", "setting": "[15]", "result": 0.9}, {"measurement": "fold change (FC)", "setting": "[16]", "result": 1}, {"measurement": "fold change (FC)", "setting": "[17]", "result": 0.8}, {"measurement": "fold change (FC)", "setting": "[18]", "result": 0.8}, {"measurement": "fold change (FC)", "setting": "[19]", "result": 127}, {"measurement": "fold change (FC)", "setting": "[20]", "result": 152}, {"measurement": "fold change (FC)", "setting": "[21]", "result": 61.7}, {"measurement": "fold change (FC)", "setting": "[22]", "result": 9.9}, {"measurement": "fold change (FC)", "setting": "[23]", "result": 1.3}, {"measurement": "fold change (FC)", "setting": "[24]", "result": 0.4}, {"measurement": "fold change (FC)", "setting": "[25]", "result": 11.2}, {"measurement": "fold change (FC)", "setting": "[26]", "result": 15.3}, {"measurement": "fold change (FC)", "setting": "[27]", "result": 4}, {"measurement": "fold change (FC)", "setting": "[28]", "result": 4.3}, {"measurement": "fold change (FC)", "setting": "[29]", "result": 0.6}, {"measurement": "fold change (FC)", "setting": "[30]", "result": 0.6}, {"measurement": "fold change (FC)", "setting": "[31]", "result": 0.9}, {"measurement": "fold change (FC)", "setting": "[32]", "result": 0.7}]}
